{"source": "patent US10188747B2", "about": "“Methods and compositions for the treatment of cancer” (THE GENERAL HOSPITAL CORPORATION, priority 2014, dated 2019)", "system": "skin, oral, and lung SCC cells", "experiment": "Spheroid formation assays of SCC cells in Matrigel", "type": "cell-based, human", "data": [{"compound": "Oc1ccc(C2Oc3ccc(O)cc3C3CCCC32)cc1", "note": "(centres unmarked)", "values": [{"measurement": "time at which effects started to show in the spheroid formation", "result": 5, "unit": "days"}, {"measurement": "spheroid formation", "setting": "1 uM concentration", "result": "completely suppressed"}, {"measurement": "efficacy in spheroid formation assays", "setting": "all cell lines tested (skin, oral, and lung SCC cells)", "result": "striking efficacy"}, {"measurement": "lung SCC cell line growth", "setting": "spheroid assays, FIG. 18B", "result": "suppression"}, {"measurement": "skin and oral SCC cell line growth", "setting": "spheroid assays, FIGS. 18A and 18C", "result": "suppression"}]}]}
